# Experimental data reported in ChEMBL document CHEMBL1153281, “Synthesis and evaluation of aniline headgroups for alkynyl thienopyrimidine dual EGFR/ErbB-2 kinase inhibitors” (Bioorg Med Chem Lett, 2009).
# By UniProt entry, the sequences of proteins in these tests, tags left out.
# UniProt P00533, whole entry: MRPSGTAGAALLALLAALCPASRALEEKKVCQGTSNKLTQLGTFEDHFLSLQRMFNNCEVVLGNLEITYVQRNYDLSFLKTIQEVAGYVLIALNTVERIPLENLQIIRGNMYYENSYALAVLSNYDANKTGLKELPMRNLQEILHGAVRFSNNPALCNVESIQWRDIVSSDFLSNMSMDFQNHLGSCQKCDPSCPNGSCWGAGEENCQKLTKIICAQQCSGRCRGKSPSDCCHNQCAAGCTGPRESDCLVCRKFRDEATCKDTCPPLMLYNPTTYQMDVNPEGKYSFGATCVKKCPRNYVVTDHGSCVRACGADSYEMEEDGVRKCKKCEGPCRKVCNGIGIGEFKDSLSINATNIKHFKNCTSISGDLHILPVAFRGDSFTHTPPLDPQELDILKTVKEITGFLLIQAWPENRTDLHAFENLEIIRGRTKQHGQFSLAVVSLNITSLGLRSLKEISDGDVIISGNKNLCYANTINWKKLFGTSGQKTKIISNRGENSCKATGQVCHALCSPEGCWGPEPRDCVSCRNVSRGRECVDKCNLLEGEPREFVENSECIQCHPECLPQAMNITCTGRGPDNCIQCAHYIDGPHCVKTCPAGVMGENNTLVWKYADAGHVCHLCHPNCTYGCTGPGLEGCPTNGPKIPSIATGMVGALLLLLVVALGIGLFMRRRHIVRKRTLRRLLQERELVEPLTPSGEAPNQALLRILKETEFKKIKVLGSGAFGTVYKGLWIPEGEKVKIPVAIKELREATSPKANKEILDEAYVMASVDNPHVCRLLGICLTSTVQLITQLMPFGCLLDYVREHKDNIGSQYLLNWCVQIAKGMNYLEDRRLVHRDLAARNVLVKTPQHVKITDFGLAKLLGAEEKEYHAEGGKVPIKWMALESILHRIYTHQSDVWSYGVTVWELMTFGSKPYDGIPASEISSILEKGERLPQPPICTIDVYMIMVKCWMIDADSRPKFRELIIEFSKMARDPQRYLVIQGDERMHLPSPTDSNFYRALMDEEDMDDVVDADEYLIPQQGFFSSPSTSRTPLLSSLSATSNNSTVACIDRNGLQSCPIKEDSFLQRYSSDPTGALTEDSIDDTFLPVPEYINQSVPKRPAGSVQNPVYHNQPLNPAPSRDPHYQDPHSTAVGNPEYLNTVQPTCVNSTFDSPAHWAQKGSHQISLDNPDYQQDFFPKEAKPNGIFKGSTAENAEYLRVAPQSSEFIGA
# UniProt P04626, whole entry: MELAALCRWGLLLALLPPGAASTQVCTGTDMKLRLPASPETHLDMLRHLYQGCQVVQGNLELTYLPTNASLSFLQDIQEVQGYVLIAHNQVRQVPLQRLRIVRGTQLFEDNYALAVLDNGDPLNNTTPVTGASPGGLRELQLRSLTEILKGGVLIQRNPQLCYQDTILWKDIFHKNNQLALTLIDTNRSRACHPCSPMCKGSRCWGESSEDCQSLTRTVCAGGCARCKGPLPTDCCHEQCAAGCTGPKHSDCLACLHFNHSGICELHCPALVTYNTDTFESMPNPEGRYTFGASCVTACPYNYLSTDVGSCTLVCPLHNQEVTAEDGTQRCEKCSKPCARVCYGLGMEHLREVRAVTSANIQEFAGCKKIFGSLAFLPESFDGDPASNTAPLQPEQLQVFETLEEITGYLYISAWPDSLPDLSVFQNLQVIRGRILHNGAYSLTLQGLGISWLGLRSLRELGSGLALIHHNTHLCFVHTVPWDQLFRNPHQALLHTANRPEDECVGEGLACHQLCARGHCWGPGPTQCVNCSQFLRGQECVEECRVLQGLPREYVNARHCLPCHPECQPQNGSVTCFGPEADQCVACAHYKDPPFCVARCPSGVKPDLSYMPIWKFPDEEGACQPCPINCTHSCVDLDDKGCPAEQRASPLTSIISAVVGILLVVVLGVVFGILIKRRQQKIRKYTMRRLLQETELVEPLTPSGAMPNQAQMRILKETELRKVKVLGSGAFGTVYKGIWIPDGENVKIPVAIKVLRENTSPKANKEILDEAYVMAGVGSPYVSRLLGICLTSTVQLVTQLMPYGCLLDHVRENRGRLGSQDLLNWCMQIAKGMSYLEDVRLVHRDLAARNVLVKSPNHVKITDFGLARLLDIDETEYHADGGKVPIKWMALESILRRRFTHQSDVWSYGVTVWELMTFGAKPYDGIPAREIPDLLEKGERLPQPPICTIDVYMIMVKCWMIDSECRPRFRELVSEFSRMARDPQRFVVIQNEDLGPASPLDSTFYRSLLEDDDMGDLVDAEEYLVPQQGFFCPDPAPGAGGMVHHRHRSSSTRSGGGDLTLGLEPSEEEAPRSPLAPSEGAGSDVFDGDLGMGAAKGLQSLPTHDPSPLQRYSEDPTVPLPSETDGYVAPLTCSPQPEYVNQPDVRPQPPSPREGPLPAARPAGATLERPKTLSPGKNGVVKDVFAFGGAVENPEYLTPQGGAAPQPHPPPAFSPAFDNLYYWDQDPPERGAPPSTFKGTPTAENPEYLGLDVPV
# Experiments:
# BT-474 = assay: cells; assay type: functional, cell-based; conditions: Homo sapiens, BT-474, 72 h
# [1] = target: Epidermal growth factor receptor (Homo sapiens, UniProt P00533)
# [2] = target: Receptor tyrosine-protein kinase erbB-2 (Homo sapiens, UniProt P04626)
SMILES,IC50 (BT-474) [nM],IC50 [1] [nM],IC50 [2] [nM]
O=C(O[C@H]1CN[C@H](C#Cc2cc3ncnc(Nc4ccc5c(cnn5Cc5cccc(F)c5)c4)c3s2)C1)N1CCOCC1,30,30,30
O=C(O[C@H]1CN[C@H](C#Cc2cc3ncnc(Nc4ccc(OCc5cccc(F)c5)c(Cl)c4)c3s2)C1)N1CCOCC1 [GW869810X],,80,
